The values below come from PubChem BioAssay AID2013 (Sanford-Burnham Center for Chemical Genomics, 2009).

The chains behind the UniProt entries cited, without tags or fusion partners.
UniProt Q9Y2T6, whole entry: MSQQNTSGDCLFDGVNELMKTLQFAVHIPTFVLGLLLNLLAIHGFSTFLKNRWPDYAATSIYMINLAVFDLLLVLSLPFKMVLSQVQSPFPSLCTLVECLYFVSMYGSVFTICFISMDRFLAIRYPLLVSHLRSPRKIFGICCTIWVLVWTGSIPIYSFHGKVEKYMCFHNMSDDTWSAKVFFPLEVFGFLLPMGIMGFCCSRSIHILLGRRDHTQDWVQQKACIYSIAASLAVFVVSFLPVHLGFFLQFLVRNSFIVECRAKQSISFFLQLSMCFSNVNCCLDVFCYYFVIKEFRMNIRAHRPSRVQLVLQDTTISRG

By inhibition is commonly meant the drop in the measured response relative to a control, in per cent.

Only a part is listed here, and it is no random draw. Entries with a potency or affinity are not part of this list. Some of these compounds have results that are not shown, active ones among them. Calls of active or inactive are those of the source.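 How the source made its calls: active means spots per cell inhibited over 60%, with over 100 cells counted and total cytoplasm intensity under 500,000; inconclusive means wells with under 100 cells, flagged as likely toxic; inactive means the rest.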

For the experiment, the target named is G-protein coupled receptor 55 (Homo sapiens) (UniProt Q9Y2T6). Kind of experiment: inhibition of LPI-stimulated GPR55 beta-arrestin translocation – imaging, U2OS, beta-arrestin-GFP, LPI agonist, primary screen (AID 2013).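 Further: U2OS cells stably carrying GPR55 and arrestin-GFP stimulated by 5 µM LPI near EC80; imaged beta-arrestin-GFP aggregate spots per cell after agonist stimulation; plate controls were LPI-stimulated DMSO wells for no effect and DMSO wells without LPI for full effect.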 To be noted: LPI antagonism, at 10 µM, hits give high values.
In the case of `O=C(NCC1(N2CCCCC2)CCCCC1)c1cc([N+](=O)[O-])ccc1Cl`, the inhibition is inactive: 5.3%.
The result for `CN1[C@@H]2CC[C@H]1CC(OC(=O)C(O)(c1ccccc1)c1ccccc1)C2` (some centres undefined) reads inactive: 4.1%; that for `COc1cc(SC)ccc1C(=O)NCC1(N(C)C)CCCCC1`, inactive: 5.1%; that for `CCN(CC)CC(C)C(C)OC(=O)C(O)(c1ccccc1)c1ccccc1` (centres undefined), inactive: -1.5%.
With `CC(C)N1C(=O)CC2(CCN(CCOC(=O)C(O)(c3ccccc3)c3ccccc3)CC2)C1=O` the figure was inactive: 2%.
`Cc1ccc(C(=O)NCC2(N3CCCCC3)CCCCC2)cc1`: the inhibition is inactive: 9.8%.
Regarding `CN(C)C1CCCC1OC(=O)C(O)(c1ccccc1)c1ccccc1` (centres undefined), the inhibition is inactive: 7.3%.
With `CN(C)c1ccc(C(=O)NCC2(N(C)C)CCCCC2)cc1` the figure was inactive: 8.8%.
For `Cc1ccccc1C(=O)NCC1(N2CCCCC2)CCCCC1`, the inhibition was inactive: 12.8%.
As for `O=C(NCC1(N2CCCCC2)CCCCC1)c1cc(F)c(F)cc1Cl`, the inhibition is inactive: 13.6%.
With `C=CCN1CCN(CCOC(=O)C(O)(c2ccccc2)c2ccccc2)CC1` the figure was inactive: 5.8%; with `COc1ccc(C(=O)NCC2(N(C)C)CCCCC2)cc1`, inactive: 1.2%.
With `O=C(NCC1(N2CCCCC2)CCCCC1)c1cccc(Br)c1` the figure was inactive: 2.8%; with `Cc1cc(C(=O)NCC2(N3CCCCC3)CCCCC2)ccc1[N+](=O)[O-]`, inactive: 1.8%; with `CCN1CCCC(OC(=O)C2(O)c3ccccc3C=Cc3ccccc32)C1` (centres undefined), inactive: -0.1%.
The result for `CN(C)C1(CNC(=O)c2ccc(Br)cc2)CCCCC1` reads inactive: 0.9%; that for `COc1cc(C(=O)NCC2(N(C)C)CCCCC2)c([N+](=O)[O-])cc1OC`, inactive: 3%.
`COc1ccc(Cl)cc1C(=O)NCC1(N(C)C)CCCCC1`: the inhibition is inactive: 2.9%.
With `COc1cccc(C(=O)NCC2(N3CCCCC3)CCCCC2)c1` the figure was inactive: 4.7%.
The result for `O=C(NCC1(N2CCCCC2)CCCCC1)c1cccc(Cl)c1` reads inactive: 11.7%; that for `O=C(OC1CN2CCC1CC2)C(CO)(c1ccccc1)c1ccccc1` (centres undefined), inactive: 3.2%.
The result for `COc1ccc(Br)c(C(=O)NCC2(N3CCCCC3)CCCCC2)c1` reads inactive: 0.4%.
On to `CC(C)Oc1ccc(C(=O)NCC2(N(C)C)CCCCC2)cc1`, for which the inhibition is inactive: 4.4%.
With `CN(C)c1cccc(C(=O)NCC2(N(C)C)CCCCC2)c1` the figure was inactive: 8.5%.
